Experimental findings from patent US12544356B2, “Combination of a chromene compound and a second active agent” (EUCLISES PHARMACEUTICALS, INC., priority 2016, dated 2026) are described below.

The data set can be described thus: Body weight in HT-29 xenograft study (Example 1). The data set is classed as in vivo, CB17SCID male mice. The note with it: erlotinib 50 mg/kg oral daily. How it is done: 48 CB17SCID male mice were implanted with 2.5×10^6 HT29 cells. Growth of the tumor was calculated for each animal using a caliper and the equation: V=π×ab^2/6.
Mouse weight and tumor volume measurements were taken on days 0, 3, 6, 9, 12, 15, 18, 21, and 22 following randomization.

SMILES strings stand for the structures.

Turning to `C#Cc1cccc(Nc2ncnc3cc(OCCOC)c(OCCOC)cc23)c1` [Erlotinib, erlotinib, reference compound], the Body weight is, setting by setting: (Day 6) 22.3 g; (Day 9) 20.6 g; (Day 12) 20.6 g; (Day 18) 20.7 g; (Day 22) 21.2 g.
